Experimental data: patent US10118947B2, “Modulation of structured polypeptide specificity” (BICYCLE THERAPEUTICS LIMITED, priority 2013, dated 2018)

Sequences of proteins named here, by UniProt entry; tags and fusion partners are left off. Residues count along the entry.
UniProt P03952, 20-638: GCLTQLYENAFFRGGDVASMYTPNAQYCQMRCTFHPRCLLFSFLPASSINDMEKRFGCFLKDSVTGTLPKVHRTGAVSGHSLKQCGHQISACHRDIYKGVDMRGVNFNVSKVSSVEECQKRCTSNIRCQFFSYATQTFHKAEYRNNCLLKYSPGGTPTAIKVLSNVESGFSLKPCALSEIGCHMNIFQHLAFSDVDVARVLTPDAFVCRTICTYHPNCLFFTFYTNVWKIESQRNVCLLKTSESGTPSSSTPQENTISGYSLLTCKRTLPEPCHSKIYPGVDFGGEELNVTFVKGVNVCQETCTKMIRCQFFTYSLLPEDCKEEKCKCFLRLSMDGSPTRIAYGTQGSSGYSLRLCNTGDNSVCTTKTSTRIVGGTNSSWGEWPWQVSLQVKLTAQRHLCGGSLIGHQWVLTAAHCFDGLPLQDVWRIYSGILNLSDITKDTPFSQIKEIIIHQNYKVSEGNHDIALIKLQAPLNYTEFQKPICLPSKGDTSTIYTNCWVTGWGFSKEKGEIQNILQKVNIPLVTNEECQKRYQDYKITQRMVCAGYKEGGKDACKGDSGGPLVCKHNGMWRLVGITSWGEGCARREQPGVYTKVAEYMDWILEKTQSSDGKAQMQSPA

Biological target: T1, human plasma Kallikrein (Homo sapiens, UniProt P03952)
T1 construct: purchased Stratech, UK
Test: Functional enzyme inhibition assay with fluorogenic substrate Z-PheArg-AMC, human plasma Kallikrein
Format: biochemical
Conditions: Table 4; read-out: Kallikrein Av Ki
Method: Functional enzyme assays were conducted in 10 mM Tris HCl, 150 mM NaCl, 10 mM MgCl2, 1 mM CaCl2) and 1 mg/mL BSA (all Sigma UK) pH7.4 at 25° C. in solid black 96 well plates. Briefly 26.5 pM human plasma Kallikrein (purchased from Stratech, UK) or 500 pM rat plasma Kallikrein (expressed and purified in house) were incubated in the absence or presence of increasing concentrations of test peptide for 15 minutes before addition of the fluorogenic substrate Z-PheArg-AMC (Enzo Lifesciences UK) to a final assay concentration of 100 μM in 4% DMSO. Release of AMC was measured using a Pherastar FS (BMG Labtech), excitation 360 nm, emission 460 nm. The rate of the linear phase of the reaction, typically 5 to 45 minutes, was calculated in MARS data analysis software (BMG labtech). […]
Peptides were dissolved as the TFA-salts in their powder form, and stock solutions were usually prepared in water. […] Extinction coefficients were calculated based on the Trp/Tyr content of the peptide, and that of TMB (the TMB core, when contained in a peptide, has an ε of ˜300 M^−1cm^−1). For peptides containing non-natural amino acids with suspected chromophoric properties (i.e. NorHar, 4PhenylPro, 3Pal, 4Pal, Tic, 4GuanPhe, 4,4-BPAI, 3,3-DPA, 1NAI, 2NAI, 4BenzylPro, Ind) concentrations were determined by weighing the powder and dissolving the peptide in a defined quantity of water. […]

SMILES	Ki
CC(C)C[C@@H]1NC(=O)[C@H](CO)NC(=O)[C@H]([C@@H](C)O)NC(=O)[C@H]([C@@H](C)O)NC(=O)[C@H](CC(C)C)NC(=O)[C@@H]2CSCc3cc(cc(c3)CSC[C@@H](C(=O)NCC(N)=O)NC1=O)CSC[C@H](NC(=O)[C@H](C)N)C(=O)N[C@@H](C)C(=O)N[C@@H](Cc1c[nH]c3ccccc13)C(=O)N1CCC[C@H]1C(=O)N[C@@H](C)C(=O)N[C@@H](CCCNC(=N)N)C(=O)N2 [Peptide 1E6]	0.16 nM
C[C@H](N)C(=O)N[C@H]1CSCc2cc3cc(c2)CSC[C@@H](C(=O)N[C@@H](C)C(N)=O)NC(=O)[C@H]([C@@H](C)O)NC(=O)[C@H]([C@@H](C)O)NC(=O)[C@H](Cc2c[nH]c4ccccc24)NC(=O)[C@H]([C@@H](C)O)NC(=O)[C@H](CCCNC(=N)N)NC(=O)[C@H](CSC3)NC(=O)[C@H](CC(N)=O)NC(=O)[C@H](CCC(N)=O)NC(=O)[C@@H]2CCCN2C(=O)CNC(=O)CNC1=O [Peptide 06-56]	2.1 nM
